Test results from patent publication US20240083839A1, “COMPOSITIONS AND METHODS FOR TREATING NEURODEGENERATIVE DISEASES AND DISORDERS” (The Regents of the University of California, priority 2020, published 2024).

System: E4-AD mice
Assay: Oral treatment of ApoE4-expressing AD model mice (NOR, brain SirT1)
Type: in vivo, mouse
Conditions: 56 days (A03 40 mg/kg/day)
Protocol: Prompted by the emerging importance of the associations between ApoE4 and the expression/protein levels of SirT1, high-throughput screening (HTS) of the UCLA compound library was performed using AlphaLISA to detect SirT1 levels in murine neuroblastoma cells stably transfected with ApoE4 (E4-N2a) to identify SirT1 enhancers. […] A03 was also found to be efficacious in vivo, eliciting cognitive improvement and enhancing SirT1 in a murine ApoE4-expressing AD model. In the in vivo study, mice were treated orally at 40 mkd (20 mg/kg BID) for 56 days and underwent assessment of cognition in the Novel Object Recognition (NOR) testing paradigm. […] The performance of A03-treated E4-AD mice (FIG. 5A) improved to level of non-transgenic vehicle-treated mice.

**Q.** Which results are given for `CC(N)C(=O)OC(C)(C)Cc1ccc(Cl)cc1` (centres unmarked) [A03, alaproclate]?
**A.** Novel Object Recognition discrimination index / cognition: significantly greater discrimination index; SirT1 in hippocampi: significantly higher
